# Measured affinities in a library of Ab-14 light chain variants

Reference: Li et al. 2023, doi:10.1038/s41467-023-39022-2. File: FLAb, binding data.

Target peptide (SARS-CoV-2 spike, HR2 region): PDVDLGDISGINAS

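The starting antibody came from a phage panning campaign against this peptide. These sequences belong to a second round, designed from the earlier measurements on random variants of the parent. Their group label is 14L_Ctrl (Ctrl: baseline library sampled from a position-specific scoring matrix, with some repeated check sequences). In AlphaSeq, yeast of one mating type display the scFv and yeast of the other type display the target. After mating in shaken culture at 30 °C for 16 h, diploids were selected and their barcode pairs sequenced. A regression on co-assayed BCL2-family reference pairs converts the normalised counts of each replicate to an apparent Kd. There are six technical replicates.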

Parent: Ab-14, a human scFv built as VH, the linker GGGGSGGGGSGGGGS, VL. Only the CDRs of the light chain vary.
VH: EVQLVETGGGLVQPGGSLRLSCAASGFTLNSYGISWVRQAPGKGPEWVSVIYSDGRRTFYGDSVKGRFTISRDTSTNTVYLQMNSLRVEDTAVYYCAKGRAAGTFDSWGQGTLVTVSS
VL: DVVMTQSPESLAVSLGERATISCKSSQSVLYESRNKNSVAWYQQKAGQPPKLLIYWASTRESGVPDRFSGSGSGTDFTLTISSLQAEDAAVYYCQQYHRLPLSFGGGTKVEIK

Changes read parent residue, position, new residue, counted from the first residue of the VL shown.
Scale: log10 of Kd in nM, estimated from mating counts; low values are strong binders.
Where no diploid with the target was found in that replicate, the entry reads "n.d.": below detection, most likely a poor binder, though not proof of it.

| changes | replicates, log10 nM | empty controls |
|---|---|---|
| V29D/H98L/P101F | n.d. / n.d. / n.d. / n.d. / n.d. / n.d. | 0 of 18 |
| S25I/V29W/R34T/W56G/L102F/S103M | 0.55 / 0.80 / 0.49 / 1.01 / 0.10 / 0.40 | 1 of 18 (1.38) |
| V29W/R34T/W56S/A57V | 0.12 / 0.22 / -0.02 / 0.05 / 0.07 / 0.31 | 3 of 18 (3.79) |
| Q96D | n.d. / 1.36 / n.d. / n.d. / 1.79 / n.d. | 0 of 18 |
| V29E/L30W/Y31L/E32S/N35E | 1.99 / 1.45 / 2.25 / 1.03 / 1.96 / 1.61 | 0 of 18 |
| S28A/V29T | n.d. / n.d. / n.d. / n.d. / n.d. / n.d. | 0 of 18 |
| K36I/S62F | 2.05 / 2.97 / 1.97 / 1.30 / 1.67 / 1.97 | 0 of 18 |
| Y31E/H98Y | 1.15 / 1.30 / 1.23 / 1.22 / 2.03 / 0.95 | 1 of 18 (2.26) |
| S25F/S62R | 3.01 / 2.70 / 2.39 / 2.98 / n.d. / 2.18 | 1 of 18 (2.94) |
| W56R/P101G | n.d. / 3.46 / 3.19 / 2.61 / 3.35 / 3.11 | 1 of 18 (2.42) |
| V29L/S33M/R34D | n.d. / 2.59 / 2.07 / 2.43 / 2.73 / n.d. | 0 of 18 |
| K36S/S38N/W56K/S58A | 0.32 / 0.26 / 0.20 / 0.20 / 0.22 / 0.50 | 0 of 18 |
| A40S/P101W/S103G | n.d. / n.d. / n.d. / n.d. / n.d. / n.d. | 0 of 18 |
| S25A/Q27Y/R34T/N35G/S62P | 1.88 / 1.68 / 1.60 / 1.78 / n.d. / 2.01 | 1 of 18 (2.15) |
| K24V/S26E/R34S/W56G/T59G | 0.82 / 1.99 / 2.26 / 1.33 / 0.78 / 1.21 | 0 of 18 |
| V29W/W56H/H98A | 0.20 / 0.12 / -0.02 / 0.12 / 0.01 / 0.09 | 2 of 18 (3.29) |
| K24A/S28E/S58Y | n.d. / n.d. / n.d. / n.d. / n.d. / n.d. | 0 of 18 |
| V29D/E61S/R99Q | n.d. / 3.06 / n.d. / 1.50 / 2.60 / n.d. | 1 of 18 (3.02) |
| L30P/W56Q/S62L | 0.26 / 0.24 / 0.07 / -0.09 / 0.19 / 0.22 | 3 of 18 (2.65) |
| S26E/K36A | n.d. / 1.68 / 1.33 / 1.64 / 1.98 / 2.94 | 0 of 18 |
| R34E/T59F | 1.46 / 1.83 / 1.43 / 1.51 / 1.77 / 2.75 | 2 of 18 (2.17) |
| Q27L/V29A/R34S | n.d. / 1.19 / 3.56 / 2.89 / n.d. / 1.56 | 0 of 18 |
| Q27P/V29D/E32S/K36Q/W56S | 0.07 / 0.15 / -0.08 / -0.13 / -0.15 / 0.15 | 0 of 18 |
| S25V/R34T | n.d. / 1.35 / 1.73 / 1.07 / 1.43 / 1.04 | 0 of 18 |
| S25I/N35H | 0.92 / 0.71 / 0.93 / 1.10 / 0.87 / 1.01 | 2 of 18 (3.31) |
| S26R/W56D | 0.07 / 0.11 / -0.04 / -0.04 / 0.05 / 0.46 | 0 of 18 |
| S28E/W56A | 0.15 / 0.17 / 0.22 / -0.07 / 0.08 / 0.39 | 0 of 18 |
| V29Q/N35P/W56S/S103K | 0.77 / 0.84 / 0.70 / 0.97 / 0.92 / 0.93 | 0 of 18 |
| S25G/S26H/V29A/W56M | 1.83 / 1.69 / 1.34 / 1.57 / 1.45 / 2.13 | 1 of 18 (3.11) |
| L30I/N35W/S62D/H98R/L100I | n.d. / n.d. / n.d. / n.d. / n.d. / n.d. | 0 of 18 |
| Q27H/S62V | 2.14 / n.d. / n.d. / n.d. / n.d. / n.d. | 0 of 18 |
| P101Q | n.d. / n.d. / n.d. / n.d. / n.d. / n.d. | 0 of 18 |
| S26Q/Y31M/L100S | n.d. / n.d. / n.d. / n.d. / n.d. / n.d. | 0 of 18 |
| S25P/S26Q/K36E/W56Q/S62P | 0.08 / -0.10 / -0.18 / -0.14 / -0.19 / -0.12 | 4 of 18 (3.07) |
| S26D/W56A | 0.30 / 0.34 / 0.57 / 0.03 / -0.03 / 0.46 | 1 of 18 (2.42) |
| S26P/Q27F/Y31T/R34T/W56E | 1.27 / n.d. / n.d. / n.d. / n.d. / n.d. | 0 of 18 |
| S25F/S38N/S62D | 2.14 / 1.65 / 1.79 / 1.39 / 1.55 / 2.00 | 0 of 18 |
| Q27S/Y31N/Q95T/H98Q | n.d. / n.d. / n.d. / n.d. / n.d. / n.d. | 0 of 18 |

The first 6 entries again:

| changes | replicates, log10 nM | empty controls |
|---|---|---|
| V29D/H98L/P101F | n.d. / n.d. / n.d. / n.d. / n.d. / n.d. | 0 of 18 |
| S25I/V29W/R34T/W56G/L102F/S103M | 0.55 / 0.80 / 0.49 / 1.01 / 0.10 / 0.40 | 1 of 18 (1.38) |
| V29W/R34T/W56S/A57V | 0.12 / 0.22 / -0.02 / 0.05 / 0.07 / 0.31 | 3 of 18 (3.79) |
| Q96D | n.d. / 1.36 / n.d. / n.d. / 1.79 / n.d. | 0 of 18 |
| V29E/L30W/Y31L/E32S/N35E | 1.99 / 1.45 / 2.25 / 1.03 / 1.96 / 1.61 | 0 of 18 |
| S28A/V29T | n.d. / n.d. / n.d. / n.d. / n.d. / n.d. | 0 of 18 |

The authors averaged sequences with at least three values out of six and counted those with two or fewer as poor binders.
The parent sequence was in this pool as ten entries: three were never detected, three once, and four in most replicates, with averages from 0.34 to 2.37.
A sequence measured in both rounds can read differently, since the two assays cover different ranges.
Nonspecific signal, from three strains lacking the peptide, appeared in 4% of pairings of all light chain designs, centred on 2.64 (5% of these signals below 1.59); values are not corrected for it. The control count says in how many pairings with the empty strains this scFv gave a signal, with their mean in brackets.